ChEMBL document CHEMBL1133093, “The PPARs: from orphan receptors to drug discovery” (J Med Chem, 2000)

Target: T1, Peroxisome proliferator-activated receptor alpha (Homo sapiens, UniProt Q07869)
T1 sequence (Q07869 whole entry): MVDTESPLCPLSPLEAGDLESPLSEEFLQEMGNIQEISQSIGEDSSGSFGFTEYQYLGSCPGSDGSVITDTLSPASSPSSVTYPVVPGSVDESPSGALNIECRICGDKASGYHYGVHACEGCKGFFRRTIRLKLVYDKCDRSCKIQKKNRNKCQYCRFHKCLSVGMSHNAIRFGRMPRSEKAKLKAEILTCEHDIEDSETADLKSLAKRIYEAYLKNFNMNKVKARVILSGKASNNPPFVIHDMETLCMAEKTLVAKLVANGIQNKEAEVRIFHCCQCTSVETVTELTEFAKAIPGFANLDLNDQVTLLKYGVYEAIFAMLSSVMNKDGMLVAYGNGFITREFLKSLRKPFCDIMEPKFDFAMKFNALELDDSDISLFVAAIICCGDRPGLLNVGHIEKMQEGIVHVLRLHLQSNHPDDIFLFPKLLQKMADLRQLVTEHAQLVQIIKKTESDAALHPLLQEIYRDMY

Compound: Cc1oc(-c2ccccc2)nc1CCOc1ccc(C[C@H](Nc2ccccc2C(=O)c2ccccc2)C(=O)O)cc1 [FARGLITAZAR]
- EC50: 450 nM
